From ChEMBL document CHEMBL5625232, “Development of selective class I protein arginine methyltransferase inhibitors through fragment-based drug design approach” (Eur J Med Chem, 2023)

Amino acid sequences for entries named in this document (tags omitted). A change or cut given only in a name is not applied to a line headed by its entry.
UniProt O60678: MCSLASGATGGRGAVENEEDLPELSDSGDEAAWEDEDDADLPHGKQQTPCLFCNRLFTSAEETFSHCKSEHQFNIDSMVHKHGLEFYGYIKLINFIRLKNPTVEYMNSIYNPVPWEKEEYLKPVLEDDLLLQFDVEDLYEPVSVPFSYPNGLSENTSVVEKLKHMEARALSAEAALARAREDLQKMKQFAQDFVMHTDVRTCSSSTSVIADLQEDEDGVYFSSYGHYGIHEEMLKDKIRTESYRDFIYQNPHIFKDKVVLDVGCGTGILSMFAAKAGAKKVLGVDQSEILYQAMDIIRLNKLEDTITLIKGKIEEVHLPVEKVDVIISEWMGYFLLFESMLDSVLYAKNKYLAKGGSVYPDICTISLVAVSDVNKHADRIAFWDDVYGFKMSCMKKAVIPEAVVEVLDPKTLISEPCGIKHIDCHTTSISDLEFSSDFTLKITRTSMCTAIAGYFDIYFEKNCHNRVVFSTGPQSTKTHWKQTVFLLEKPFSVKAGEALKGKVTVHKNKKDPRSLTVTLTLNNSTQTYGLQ

Target: Protein arginine N-methyltransferase 3 (Homo sapiens, UniProt O60678)
Experiment: Displacement of 3H-SAM from human PRMT3 in presence of substrate by SPA assay

Structure (SMILES): CC(C)Oc1ccc(-c2c[nH]cc2CN(C)CCN)cc1
- IC50: 201 µM
